{
  "sequences": {"note": "Chains of the proteins cited; added tags and fusions are not shown.", "UniProt Q92769, whole entry": "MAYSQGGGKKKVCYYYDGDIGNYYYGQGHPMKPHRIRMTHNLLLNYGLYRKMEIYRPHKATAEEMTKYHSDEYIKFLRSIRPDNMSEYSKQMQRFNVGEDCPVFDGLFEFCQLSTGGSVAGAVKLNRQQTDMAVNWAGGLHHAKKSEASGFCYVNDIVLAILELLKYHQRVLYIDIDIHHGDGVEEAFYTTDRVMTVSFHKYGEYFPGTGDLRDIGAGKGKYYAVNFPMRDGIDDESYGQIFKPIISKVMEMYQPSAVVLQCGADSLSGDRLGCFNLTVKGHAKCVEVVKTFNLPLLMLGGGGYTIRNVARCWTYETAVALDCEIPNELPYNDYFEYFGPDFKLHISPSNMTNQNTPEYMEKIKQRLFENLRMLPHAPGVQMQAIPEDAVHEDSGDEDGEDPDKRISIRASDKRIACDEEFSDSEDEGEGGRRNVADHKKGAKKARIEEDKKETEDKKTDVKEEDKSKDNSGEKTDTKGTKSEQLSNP"},
  "source": "paper PMC4368451",
  "about": "(Cancer chemotherapy and pharmacology, 2015)",
  "key": {"HDAC2": {"target": "HDAC2 (Homo sapiens, UniProt Q92769)", "assay": "HDAC panel inhibition", "details": "read-out: Calculated Inhibitory IC50, HDAC 2, unmasked thiol forms"}, "[1]": {"tested_on": "A549 non-small cell lung carcinoma xenograft", "assay": "A549 xenograft model", "details": "5 mg/kg i.p. every other day"}},
  "note": "pIC50: −log10 of the molar value.",
  "data": [
    {"substance": "Largazole thiol", "values": [
      {"measurement": "pIC50", "setting": "HDAC2", "value": 7.98},
      {"measurement": "fatality", "setting": "[1]", "value": "one fatality occurred"},
      {"measurement": "weight loss", "setting": "[1]", "value": "~ 2%"}
    ]}
  ]
}
